Assays:
hNav1.3 = biological target: T1, hNav1.3 (Homo sapiens, UniProt Q9NY46); assay: Automated planar whole-cell patch clamp (Patchliner), hSCN3A HEK293T cells; type: cell-based
T1 construct: expressed in transfected cells; host or cells: HEK293T
Text: To characterize the functional activity of Hm1a and Hm1b, HEK293T cells stably transfected with either hSCN1A, hSCN2A, hSCN3A, hSCN5A, hSCN9A or hSCN10A as well as CHO cells stably transfected with hSCN4A or hSCN8A were used for whole-cell patch-clamp analysis with a high throughput automated planar patch-clamp technology.
HEK293T cells stably transfected with either hSCN1A, hSCN2A, hSCN3A, hSCN5A, hSCN9A or hSCN10A were maintained in Dulbecco's Modified Eagle's Medium Nutrient Mixture F-12 (Invitrogen, Carlsbad, Calif., USA) supplemented with 10% (v/v) foetal bovine serum (FBS) (Invitrogen), 0.9% Penicillin/Streptomycin (P/S) solution and 100 μg/mL hygromycin or 100 μg/mL neomycin. CHO cells stably transfected with hSCN4A or hSCN8A were maintained in Ham's F12 Nutrient Mixture (Invitrogen, Carlsbad, Calif., USA) supplemented with 10% (v/v) FBS, 0.9% P/S solution and 100 μg/mL hygromycin. All cells were grown in T75 flasks (BD Biosciences, San Jose, Calif., USA) to ˜70% confluency.
Patch-clamp recordings were conducted in the whole-cell configuration using a Patchliner® (Nanion Technologies, Munich, Germany). […]

Protein sequences, listed by entry. Tags and fused reporters are not part of them.
UniProt Q9NY46, whole entry: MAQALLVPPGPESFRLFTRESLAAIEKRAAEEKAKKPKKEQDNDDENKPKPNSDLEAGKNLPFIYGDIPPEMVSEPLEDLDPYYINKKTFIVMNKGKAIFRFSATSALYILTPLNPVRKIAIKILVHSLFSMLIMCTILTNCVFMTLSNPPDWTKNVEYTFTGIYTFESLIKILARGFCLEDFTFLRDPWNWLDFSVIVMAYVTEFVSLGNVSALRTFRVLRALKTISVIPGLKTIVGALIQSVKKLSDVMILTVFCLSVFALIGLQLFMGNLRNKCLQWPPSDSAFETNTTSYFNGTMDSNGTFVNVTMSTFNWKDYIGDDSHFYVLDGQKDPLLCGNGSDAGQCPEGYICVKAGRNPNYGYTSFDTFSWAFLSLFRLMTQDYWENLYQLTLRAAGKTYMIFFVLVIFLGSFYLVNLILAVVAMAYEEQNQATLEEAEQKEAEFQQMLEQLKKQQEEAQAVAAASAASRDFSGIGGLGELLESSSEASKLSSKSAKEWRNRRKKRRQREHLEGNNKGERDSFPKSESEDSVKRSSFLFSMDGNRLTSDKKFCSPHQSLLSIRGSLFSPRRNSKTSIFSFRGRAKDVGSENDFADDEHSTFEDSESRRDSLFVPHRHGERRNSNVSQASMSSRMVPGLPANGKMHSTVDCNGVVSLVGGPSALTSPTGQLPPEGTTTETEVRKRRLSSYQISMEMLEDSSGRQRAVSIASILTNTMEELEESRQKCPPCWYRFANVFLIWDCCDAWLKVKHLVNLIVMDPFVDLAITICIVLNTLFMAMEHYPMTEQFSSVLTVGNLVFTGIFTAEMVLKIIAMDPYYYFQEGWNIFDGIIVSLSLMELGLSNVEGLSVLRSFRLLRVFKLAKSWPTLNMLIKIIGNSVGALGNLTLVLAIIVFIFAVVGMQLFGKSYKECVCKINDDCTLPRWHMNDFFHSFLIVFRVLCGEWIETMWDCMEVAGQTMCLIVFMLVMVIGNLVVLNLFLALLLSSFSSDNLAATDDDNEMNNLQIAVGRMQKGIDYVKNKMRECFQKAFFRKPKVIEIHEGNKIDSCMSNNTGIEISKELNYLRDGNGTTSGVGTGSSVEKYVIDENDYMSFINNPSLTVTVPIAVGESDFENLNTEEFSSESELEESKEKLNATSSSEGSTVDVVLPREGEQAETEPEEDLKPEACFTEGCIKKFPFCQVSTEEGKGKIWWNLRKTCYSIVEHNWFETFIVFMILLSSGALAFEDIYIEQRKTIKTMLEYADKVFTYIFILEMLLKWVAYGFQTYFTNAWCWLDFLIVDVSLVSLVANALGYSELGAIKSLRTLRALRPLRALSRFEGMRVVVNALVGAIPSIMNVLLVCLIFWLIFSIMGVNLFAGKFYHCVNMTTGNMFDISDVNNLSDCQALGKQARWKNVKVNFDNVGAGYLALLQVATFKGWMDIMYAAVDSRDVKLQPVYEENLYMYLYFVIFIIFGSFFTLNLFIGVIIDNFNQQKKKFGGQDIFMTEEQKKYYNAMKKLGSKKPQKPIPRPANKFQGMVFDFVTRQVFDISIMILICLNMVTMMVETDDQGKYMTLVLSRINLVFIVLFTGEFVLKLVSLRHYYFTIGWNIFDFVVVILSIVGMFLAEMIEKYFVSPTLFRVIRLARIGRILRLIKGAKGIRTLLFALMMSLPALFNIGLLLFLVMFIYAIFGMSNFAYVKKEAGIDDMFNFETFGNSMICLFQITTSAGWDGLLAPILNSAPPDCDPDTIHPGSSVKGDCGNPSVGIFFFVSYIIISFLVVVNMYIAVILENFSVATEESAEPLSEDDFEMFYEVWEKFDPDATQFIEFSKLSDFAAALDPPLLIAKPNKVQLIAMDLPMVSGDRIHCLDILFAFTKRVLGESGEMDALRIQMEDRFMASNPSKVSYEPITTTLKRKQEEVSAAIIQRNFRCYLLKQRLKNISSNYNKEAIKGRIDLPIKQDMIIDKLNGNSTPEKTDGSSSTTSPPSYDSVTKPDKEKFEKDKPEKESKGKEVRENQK

[1] = tested on: sodium channel currents in TG neurons; assay: Whole-cell patch clamp / current clamp of dissociated trigeminal neurons; type: cell-based, mouse
Description: Trigeminal ganglia were dissected from newborn (P0-P3) C57BL/6 mice and dissociated with collagenase P (Sigma) and 0.25% Trypsin (15 minutes each). Cells were then triturated with a plastic pipette and cultured for >12 hours before electrophysiological recording. Whole-cell patch clamp recordings were performed manually on dissociated neurons using an Axopatch 200B amplifier (Axon instruments). Signals were digitized using a Digidata 1440A (Axon Instruments) and recorded using pClamp software. External solutions were 150 mM NaCl, 2.8 mM KCl, 1 mM MgCl2, 1 mM CaCl2), pH adjusted to 7.4 using NaOH. Internal solutions contained 130 mM K-gluconate, 15 mM KCl, 4 mM NaCl, 0.5 mM CaCl2, 1 mM EGTA, 10 mM HEPES, pH adjusted to 7.2 using NaOH. Inward sodium channel currents were elicited by stepping the membrane voltage from −90 mV to −30 mV.

For `CC(C)C[C@@H]1NC(=O)[C@H](Cc2ccc(O)cc2)NC(=O)[C@H](CCCNC(=N)N)NC(=O)[C@@H](NC(=O)[C@@H](N)CCC(=O)O)CSSC[C@@H]2NC(=O)[C@@H]3CSSC[C@@H](C(=O)N[C@@H](C)C(=O)N[C@@H](Cc4c[nH]c5ccccc45)C(=O)N[C@@H](CC(=O)O)C(=O)NCC(=O)N[C@H](C(=O)N[C@@H](Cc4ccccc4)C(=O)N[C@@H](CO)C(=O)O)[C@@H](C)O)NC(=O)[C@H](Cc4ccc(O)cc4)NC(=O)[C@H](CCCCN)NC(=O)[C@H](Cc4c[nH]c5ccccc45)NC(=O)[C@H](CC(=O)O)NC(=O)[C@H](CO)NC(=O)[C@H](CCCNC(=N)N)NC(=O)[C@H](CSSC[C@H](NC(=O)CNC(=O)CNC(=O)[C@H](Cc4ccccc4)NC1=O)C(=O)N[C@@H](CO)C(=O)N[C@@H](CO)C(=O)N[C@@H]([C@@H](C)O)C(=O)N[C@@H](CO)C(=O)N[C@@H](CC(=O)O)C(=O)N3)NC(=O)[C@H](CO)NC(=O)[C@H](CC(C)C)NC(=O)[C@H](Cc1c[nH]cn1)NC(=O)[C@H](CCCCN)NC2=O` [Hm1a], the hNav1.3 sustained current (hNav1.3) was “does not result in a sustained current”, the “rate of inactivation of hNav1.3” value (hNav1.3; to a lesser extent than hNav1.1, 1, 5 or 50 nM) was “slows the rate of inactivation” and the “resting membrane potential Vm” value ([1]; after Hm1a, before Hm1a −55±6 mV, current clamp) was −56±6 mV. The action potential waveform ([1]; current clamp) was “prolonged”, the spike frequency ([1]; following a 20 pA current injection, Hm1a 500 nM) was “robustly enhanced” and the sodium channel inactivation ([1]; whole-cell patch-clamp, TG neurons) was “robustly inhibited sodium channel inactivation”.
